Assay: Inhibition of human CYP1A1 transfected in HEK293 cells assessed as protection against CYP1A1 mediated B[a]P toxicity by measuring B[a]P EC50 at 20 uM by MTT assay (Rvb =1.2+/- 0.3 uM)

Compound: O=c1cc(-c2ccccc2)oc2c1ccc1ccccc12
- EC50: 3.2 µM

— BindingDB's records for doi:10.1016/j.bmcl.2017.11.013 (Csir-Indian Institute of Integrative Medicine, 2017)
